# Laboratory results as given in patent US20130096170A1 (priority 2011, published 2013).
# How the values were obtained:
# [1] = test system: initially intubated and mechanically ventilated pediatric subjects 1 month to <17 years; assay: Example 2: sedation efficacy in pediatric ICU subjects (UMSS, rescue medication, extubation); conditions: for median total amount of rescue fentanyl: subjects who required rescue
# [2] = test system: infants 1 to 24 months postoperative from cardiac surgery; assay: Example 5: pharmacodynamics (UMSS, BIS, additional sedation)
# [3] = test system: initially intubated and mechanically ventilated neonates ≥28 to ≤44 weeks gestational age; assay: Example 1: sedation/analgesia efficacy in neonates (N-PASS, rescue medication)
# [4] = test system: intubated and mechanically ventilated pediatric subjects 12 to <24 months; assay: Example 7: pharmacodynamics (UMSS, FLACC, rescue medication, extubation)
# [5] = test system: intubated and mechanically ventilated pediatric subjects 2 to <17 years; assay: Example 3: pharmacodynamics (RSS, RASS, FLACC, rescue medication, extubation); conditions: for total amount of rescue fentanyl while intubated, mean / total amount of rescue fentanyl while intubated, median / weight-adjusted total amount of rescue fentanyl while intubated, mean / weight-adjusted total amount of rescue fentanyl while intubated, median: full evaluable population
structure (smiles),measurement,setting,value
Cc1cccc([C@H](C)c2c[nH]cn2)c1C [dexmedetomidine],median amount per kg of rescue fentanyl,[1]; high dose,3.25 µg/kg
same,subjects who received rescue fentanyl for analgesia while intubated,[1]; high dose (44/81),54.3%
same,median total amount of rescue fentanyl,[1]; high dose,35.13 µg
same,median amount per kg of rescue fentanyl,[1]; low dose,4.13 µg/kg
same,subjects who received rescue fentanyl for analgesia while intubated,[1]; low dose (53/83),63.9%
same,median total amount of rescue fentanyl,[1]; low dose,46.00 µg
same,amount of fentanyl administered as additional intra-operative sedation agent,[2]; high dose,80.20 µg
same,amount of fentanyl administered as additional intra-operative sedation agent,[2]; low dose,99.32 µg
same,amount of fentanyl administered as additional intra-operative sedation agent,[2]; moderate dose,69.32 µg
same,rescue fentanyl given to the one subject requiring analgesia,"[3]; additional cohort, age Group I, dose level 2",2 μg and 0.98 μg/kg
same,patients given rescue analgesia with fentanyl,[3]; group I (levels 1 and 2),17%
same,patients given rescue analgesia with fentanyl,[3]; group II,46%
same,time of first rescue fentanyl after start of infusion,"[4]; Subject 01-0001, dose level 2",1.62 h
same,time of first rescue fentanyl after start of infusion,"[4]; Subject 01-0003, dose level 1",1.43 h
same,time of first rescue fentanyl after start of infusion,"[4]; Subject 01-0004, dose level 2",0.67 h
same,"total amount of rescue fentanyl while intubated, mean",[5]; Dose Level 1,49.72 µg
same,"total amount of rescue fentanyl while intubated, median",[5]; Dose Level 1,36.00 µg
same,"weight-adjusted total amount of rescue fentanyl while intubated, mean",[5]; Dose Level 1,2.24 µg/kg
same,"weight-adjusted total amount of rescue fentanyl while intubated, median",[5]; Dose Level 1,1.91 µg/kg
same,"total amount of rescue fentanyl while intubated, mean",[5]; Dose Level 2,3575.97 µg
same,"total amount of rescue fentanyl while intubated, median",[5]; Dose Level 2,55.00 µg
same,"weight-adjusted total amount of rescue fentanyl while intubated, mean",[5]; Dose Level 2,191.13 µg/kg
same,"weight-adjusted total amount of rescue fentanyl while intubated, median",[5]; Dose Level 2,2.68 µg/kg
same,"total amount of rescue fentanyl while intubated, mean",[5]; Dose Level 3,51.61 µg
same,"total amount of rescue fentanyl while intubated, median",[5]; Dose Level 3,30.00 µg
same,"weight-adjusted total amount of rescue fentanyl while intubated, mean",[5]; Dose Level 3,2.84 µg/kg
same,"weight-adjusted total amount of rescue fentanyl while intubated, median",[5]; Dose Level 3,1.54 µg/kg
same,"total amount of rescue fentanyl while intubated, mean",[5]; Dose Level 4,35.46 µg
same,"total amount of rescue fentanyl while intubated, median",[5]; Dose Level 4,33.00 µg
same,"weight-adjusted total amount of rescue fentanyl while intubated, mean",[5]; Dose Level 4,2.26 µg/kg
same,"weight-adjusted total amount of rescue fentanyl while intubated, median",[5]; Dose Level 4,1.75 µg/kg
same,subjects who received co-administration of midazolam or fentanyl,"[5]; Group II, Dose Level 4, of 8 subjects",3 subjects

# Values joined by “and” are separate entries in the source; they are usually repeats but may differ in a detail not shown here. Equal values may be shown once.
